The values that follow are results of earlier work, collected in article PMC4452637, “Identification of positron emission tomography (PET) tracer candidates by prediction of the target-bound fraction in the brain” (EJNMMI Research, 2014).

SMILES strings stand for the structures.

For this data set, the target named is D2. Further details: method as in ref 22, 31, 62, 82 (Additional file 1). Conditions: literature value; 82 (Additional file 1); cited from earlier work.

With `CCN1CCC[C@H]1CNC(=O)c1c(O)c(Cl)cc(Cl)c1OC` (racemic) [[^11C]Raclopride], the Kd (commonly a measure of binding affinity in units of concentration) is 2.5 nM.
